# From USRE47351E1 (Gilead Sciences, Inc., priority 1999, dated 2019)
# Protein sequences, listed by entry. Tags and fused reporters are not part of them.
# UniProt P30542, whole entry: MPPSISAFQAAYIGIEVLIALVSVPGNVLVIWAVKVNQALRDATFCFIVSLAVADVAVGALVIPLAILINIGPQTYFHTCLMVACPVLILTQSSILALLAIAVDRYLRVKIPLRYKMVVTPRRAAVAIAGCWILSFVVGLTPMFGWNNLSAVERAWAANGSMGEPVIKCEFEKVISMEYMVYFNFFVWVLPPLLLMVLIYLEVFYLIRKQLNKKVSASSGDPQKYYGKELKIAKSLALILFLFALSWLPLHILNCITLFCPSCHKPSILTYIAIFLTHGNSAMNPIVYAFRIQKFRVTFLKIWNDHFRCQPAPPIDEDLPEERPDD
# Molecular target: human A1AdoR (Homo sapiens (Human), UniProt P30542)
# Test: Competition binding, [3H]DPCPX/[3H]CPX sites on CHO-hA1AdoR cell membranes
# Conditions: undefined bracketed value, possibly Hill slope
structure (smiles),measurement,value
"CCNC(=O)[C@H]1O[C@@H](n2cnc3c(N)ncnc32)[C@H](O)[C@@H]1O [NECA, 5′-N-ethylcarboxamidoadenosine, reference compound]","Value in square brackets below binding affinity, CHO-hA1AR (not defined in the patent)",[0.88 ± 0.03]
